Drawing on ChEMBL document CHEMBL1137082, “Potent and selective conformationally restricted neuronal nitric oxide synthase inhibitors” (J Med Chem, 2004), this text covers IC50 for two compounds.

The target of this test is T1, Nitric oxide synthase 3 (Bos taurus, UniProt P29473).
T1 sequence (P29473 whole entry): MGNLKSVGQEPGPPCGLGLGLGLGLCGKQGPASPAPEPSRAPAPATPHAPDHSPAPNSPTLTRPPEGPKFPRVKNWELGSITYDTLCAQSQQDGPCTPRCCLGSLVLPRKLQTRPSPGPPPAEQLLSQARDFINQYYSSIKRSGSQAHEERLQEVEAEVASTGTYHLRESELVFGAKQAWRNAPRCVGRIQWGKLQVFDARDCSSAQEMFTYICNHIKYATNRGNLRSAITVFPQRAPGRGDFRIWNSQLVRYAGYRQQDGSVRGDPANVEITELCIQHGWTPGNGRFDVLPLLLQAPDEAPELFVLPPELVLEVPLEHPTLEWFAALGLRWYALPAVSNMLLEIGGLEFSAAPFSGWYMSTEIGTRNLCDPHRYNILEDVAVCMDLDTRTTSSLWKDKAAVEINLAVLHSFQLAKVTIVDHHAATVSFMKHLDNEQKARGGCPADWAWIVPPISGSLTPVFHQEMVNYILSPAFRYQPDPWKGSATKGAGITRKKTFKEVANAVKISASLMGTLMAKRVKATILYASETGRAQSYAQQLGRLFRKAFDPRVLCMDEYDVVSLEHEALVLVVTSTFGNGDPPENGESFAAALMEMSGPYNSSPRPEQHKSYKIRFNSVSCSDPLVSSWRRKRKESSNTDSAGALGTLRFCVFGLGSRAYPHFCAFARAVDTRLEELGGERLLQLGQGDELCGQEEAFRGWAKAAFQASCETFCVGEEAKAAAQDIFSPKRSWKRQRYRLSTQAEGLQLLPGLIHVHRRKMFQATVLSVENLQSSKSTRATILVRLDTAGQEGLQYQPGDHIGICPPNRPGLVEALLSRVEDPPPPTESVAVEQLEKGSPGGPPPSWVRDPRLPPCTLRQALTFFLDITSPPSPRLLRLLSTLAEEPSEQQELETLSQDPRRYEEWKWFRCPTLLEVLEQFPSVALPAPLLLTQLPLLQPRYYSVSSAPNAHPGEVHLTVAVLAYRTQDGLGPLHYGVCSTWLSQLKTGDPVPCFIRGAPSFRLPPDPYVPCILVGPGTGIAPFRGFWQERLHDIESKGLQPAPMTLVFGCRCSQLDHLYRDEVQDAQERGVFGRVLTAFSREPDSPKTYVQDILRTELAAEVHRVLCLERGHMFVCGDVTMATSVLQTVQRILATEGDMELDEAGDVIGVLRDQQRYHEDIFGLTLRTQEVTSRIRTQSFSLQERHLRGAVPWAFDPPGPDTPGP
Put plainly: Inhibitory activity against endothelial nitric oxide synthase (eNOS).

Broadly, the IC50 is the concentration at which inhibition is half-maximal. Low readings indicate higher potency, high ones lower potency. Compound `NC(=O)[C@@H]1C[C@@H](NC(=O)[C@@H](N)CCC/N=C(\N)N[N+](=O)[O-])CN1` had an IC50 of 880 µM. For `N=C(NCCC[C@H](N)C(=O)NC1CNC(C(N)=O)C1)N[N+](=O)[O-]` (single isomer, unassigned) the value was 760 µM.
